{
  "source": "ChEMBL document CHEMBL1144528",
  "about": "“Synthesis of 8-thiabicyclo[3.2.1]octanes and their binding affinity for the dopamine and serotonin transporters” (Bioorg Med Chem, 2007)",
  "organism": "Macaca mulatta",
  "assay": "Selectivity for rhesus monkey DAT over rhesus monkey SERT",
  "procedure,_shortened": "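Ratio of SERT IC50 ([3H]citalopram binding) to DAT IC50 ([3H]WIN35,428 binding), both measured in monkey caudate-putamen membranes.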",
  "data": [
    {"compound": "COC(=O)C1=C(c2ccc(Cl)c(Cl)c2)CC2C[C@@H](O)[C@@H]1N2C", "values": [
      {"measurement": "Ratio IC50", "result": 6}
    ]}
  ]
}
